# According to PMC11602115 (Journal of Medicinal Chemistry, 2017):
# Protein sequences, listed by entry. Tags and fused reporters are not part of them. Lines headed by an entry give the natural chain unless they say otherwise; changes in a name come on top.
# UniProt P43119: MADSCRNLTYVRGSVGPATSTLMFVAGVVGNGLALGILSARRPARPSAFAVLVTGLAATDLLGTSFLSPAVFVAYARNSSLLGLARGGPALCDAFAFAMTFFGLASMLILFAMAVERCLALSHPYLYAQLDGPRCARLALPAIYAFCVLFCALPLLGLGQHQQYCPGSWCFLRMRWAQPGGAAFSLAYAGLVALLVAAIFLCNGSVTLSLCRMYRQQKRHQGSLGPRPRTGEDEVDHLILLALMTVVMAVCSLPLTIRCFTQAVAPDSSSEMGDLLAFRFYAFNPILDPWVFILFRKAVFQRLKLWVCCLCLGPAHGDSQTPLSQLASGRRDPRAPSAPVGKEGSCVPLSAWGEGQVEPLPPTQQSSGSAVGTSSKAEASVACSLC
# Like-named read-outs stand apart in the source and are kept apart here.
# How the values were obtained:
# IP [1] = molecular target: T1, IP (Homo sapiens, UniProt P43119); assay: Radioligand binding, human IP ([3H]-iloprost); design: expressed in transfected cells; host or cells: CHO-K1 (crude membranes); conditions: recombinant receptor membranes, read-out: measured Kd, human IP
# Experimental: CHO-K1 cells expressing recombinant IP receptors were harvested, washed with ice-cold phosphate buffered saline, pH 7.4 (PBS), and then centrifuged at 48 000g for 20 min at 4 °C. The resulting cell pellet was then resuspended in ice-cold PBS containing 20 mM HEPES, pH 7.4, and 0.1 mM EDTA, homogenized on ice using a Brinkman Polytron, and centrifuged (48 000g for 20 min at 4 °C). This resuspension and centrifugation process was repeated one further time. Crude membrane pellets were stored at −80 °C until used for radioligand binding assays.
# Assay incubations were terminated by rapid filtration through PerkinElmer GF/C filtration plates pretreated with 0.3% PEI, under vacuum pressure using a 96-well Packard filtration apparatus, followed by multiple washes with ice-cold wash buffer (PBS containing 20 mM HEPES and 0.1 mM EDTA, pH 7.4). Plates were then dried at 45 °C for a minimum of 2 h. Finally, 25 μL of BetaScint scintillation cocktail was added to each well and plates were counted in a Packard TopCount scintillation counter. In each competition study, test compounds were dosed at 10 concentrations with triplicate determinations at each test concentration.
# IP [2] = molecular target: T1, IP; design: expressed in transfected cells; host or cells: CHO-K1 (crude membranes); conditions: literature value, reference not given; cited from earlier work
substance,measurement,setting,value
[^3H]-iloprost [reference compound],Kd,IP [1],7 nM
same,Kd,IP [2],9.82 nM
